Amino acid sequences for entries named in this document (tags omitted).
ADP-ribosylation factor GTPase-activating protein 1 (Rattus norvegicus), Q62848, UniProt Q62848, whole entry, looked up: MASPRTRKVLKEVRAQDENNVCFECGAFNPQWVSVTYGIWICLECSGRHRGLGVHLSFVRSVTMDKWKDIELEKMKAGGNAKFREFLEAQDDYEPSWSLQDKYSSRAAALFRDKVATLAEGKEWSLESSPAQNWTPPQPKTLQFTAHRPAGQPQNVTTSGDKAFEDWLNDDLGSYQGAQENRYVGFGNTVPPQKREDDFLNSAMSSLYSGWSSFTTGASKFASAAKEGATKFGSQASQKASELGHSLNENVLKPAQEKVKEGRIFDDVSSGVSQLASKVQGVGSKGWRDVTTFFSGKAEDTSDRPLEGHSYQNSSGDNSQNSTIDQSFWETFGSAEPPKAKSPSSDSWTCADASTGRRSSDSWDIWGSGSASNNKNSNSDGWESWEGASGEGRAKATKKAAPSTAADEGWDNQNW
Melanocortin receptor 4 (Homo sapiens), P32245, UniProt P32245, whole entry, looked up: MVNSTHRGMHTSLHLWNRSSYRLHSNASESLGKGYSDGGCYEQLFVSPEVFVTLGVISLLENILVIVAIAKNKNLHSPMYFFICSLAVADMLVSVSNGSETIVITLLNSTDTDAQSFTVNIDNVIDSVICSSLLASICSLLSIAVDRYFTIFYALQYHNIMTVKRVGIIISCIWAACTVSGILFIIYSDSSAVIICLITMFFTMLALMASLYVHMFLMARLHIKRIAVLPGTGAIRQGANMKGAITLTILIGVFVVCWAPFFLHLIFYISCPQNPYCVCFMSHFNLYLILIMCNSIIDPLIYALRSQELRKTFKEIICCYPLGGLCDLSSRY

# Hits are enriched below; roughly 2.3% of the tested compounds scored in any of these assays.
# MC4R ag barr: MC4R agonists recruiting beta-arrestin, primary screen, cell-based, luminescence, agonist arm of biased-ligand search | U2OS MC4R beta-arrestin complementation; percent of melanotan II response, DMSO zero | activation, % at 8.9 µM | 360,000 tested, 0.98% active | AID 540308, 2011;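 active = activation above a per-plate cutoff, the mean activation of sample wells on that plate plus 3 SD, cut at about 8% in these data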
# ASAP1 inh: inhibitors of human ASAP1 ArfGAP activity, primary screen, biochemical, fluorescence polarization; 360,000 tested, 0.19% active; Arf-GAP with SH3 domain, ANK repeat and PH domain-containing protein 1 (Homo sapiens), …; inhibition, % at 16.5 µM; AID 624377, 2012; ASAP1-stimulated ARF1 GTP hydrolysis, GDP FP detection; in the data active = inhibition above about 25%;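 note: 0% = vehicle with enzyme and substrate and 100% = no enzyme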
# Yeast UUG start-1: modulators of yeast start codon fidelity, primary screen, whole organism, S. cerevisiae, single point, plate reader; S. cerevisiae UUG-firefly luciferase reporter, luminescence/redox ratio; activity score, % at 18.7 µM; actives 0.13% (n = 350,000); AID 602363, 2012;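 active = replicate mean at a twofold rise or more, about +100% in these data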;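 also: firefly luciferase made from a UUG start codon reports start codon fidelity; reporter light over untreated wells divided by growth signal over untreated wells; some hits fall short of that in this replicate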
# ARFGAP1 inhibitor: inhibitors of rat ARFGAP1 GAP activity, primary screen, biochemical, fluorescence polarization, GDP tracer | AID 651572, 2012 | ADP-ribosylation factor GTPase-activating protein 1 (Rattus norvegicus), Q62848 | Arfgap1-stimulated ARF1 GTP hydrolysis, GDP FP detection | inhibition, % at 16.5 µM | 360,000 tested, 0.26% active;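 active = inhibition above a per-plate limit, mean inhibition of low control wells plus 3 SD, cut at about 25% in these data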;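 note: 0% = DMSO wells with enzyme and 100% = wells lacking Arfgap1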
#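 Assay system: purified rat His6-Arfgap1 residues 1-136 (GAP domain); Reagent: human Δ17 ARF1 bound to GTP; Dosing: 16.5 µM single point, 1.26% DMSO; Times: GTP hydrolysis reaction 2 h at 25 °C; Signal: FP, GDP Alexa 633 tracer displaced from anti-GDP antibody, 620/688 nm; Measure: % inhibition from polarization.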
# NRP1-CendR mod: modulators of CendR peptide binding to NRP-1, primary screen, biochemical, fluorescence polarization, uHTS. FAM-RPARPAR peptide binding to NRP-1. inhibition, % at 25 µM. 360,000 tested, 0.85% active. AID 602438, 2012;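 active = inhibition or corrected inhibition above about 18%, plus a signal ratio from 0.5 to 1.5, limit read from the data, passing the limit was not always enough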
# MC4R antag cAMP: MC4R antagonists of cAMP signaling, primary screen, cell-based, TR-FRET, antagonist arm of biased-ligand search. AID 540295, 2011. inhibition, % at 6.5 µM. 360,000 tested, 0.48% active. MC4R-expressing cells, MTII-stimulated cAMP, LANCE TR-FRET. Melanocortin receptor 4 (Homo sapiens), P32245;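 active = inhibition above its plate's cutoff, the mean of tested wells on that plate plus 3 SD, cut at about 29% in these data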;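 note: 0% = Melanotan II alone and 100% = Melanotan II plus saturating MCL0020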
#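 Material – human MC4R-expressing U2OS cells · Repeats – no replicates · Detection – TR-FRET with Eu-cAMP and labeled anti-cAMP, 671 nm · Times – compound 30 min, challenge 1 h, detection 1 h · Compound – single nominal compound dose of 6.5 µM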
# Yeast UUG start-2: enhancers of UUG start codon usage in yeast, dose response, S. cerevisiae, UUG firefly luciferase, cherry-pick, set 2. luminescence, 4 h; 100% means double the DMSO signal. 540 tested, under 10 active. activation, % at 38 µM. shares compounds with Yeast UUG start-1;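 active = signal increase whose fitted curve reaches an absolute level of 40 at a concentration under 10 µM; inactive = activity opposite to the expected increase, or the rest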
# * = called active by the depositor; i = inactive; / = no result.
SMILES,MC4R ag barr,ASAP1 inh,Yeast UUG start-1,ARFGAP1 inhibitor,NRP1-CendR mod,MC4R antag cAMP,Yeast UUG start-2
O=C(Cc1cccc2ccccc12)NCC(=O)N1CCN(Cc2cccc(C(F)(F)F)c2)CC1,2,-1,116*,10,-2,-2,12
C[C@@H]1CN([C@@H](C)CO)C(=O)c2cc(-c3ccc(F)cc3)cnc2O[C@@H]1CN(C)C(=O)CN(C)C,/,/,8,/,/,/,/
Cc1cc(Cl)ccc1NC(=S)NCCC(c1ccccc1)c1ccccc1,2,11,112*,3,4,4,7
COc1ccc(C(=O)c2cnc[nH]2)cc1,1,-6,171*,-6,0,-5,6
COc1ccc(C(=O)c2cnc[nH]2)cc1OC,-1,-4,-20,-10,24,11,/
COc1ccc(S(=O)(=O)Nc2ccc3c(c2)C(=O)N([C@@H](C)CO)C[C@H](C)[C@H](CN(C)C(=O)NC(C)C)O3)cc1,/,/,3,/,/,/,/
O=C(COC(=O)c1cc2ccccc2o1)c1ccccc1,0,3,-4,-1,7,-2,10
O=C(NCc1cccc(Cl)c1)c1ccc(-n2ccnc2)c2ccoc12,-1,-9,126*,-6,-9,2,-7
COc1ccc(CNC(=O)c2ccc(-n3cncn3)c3ccoc23)cc1OC,2,20,-5,2,-19,10,/
O=C(NCc1cccc(Cl)c1)c1ccc(-n2cncn2)c2ccoc12,0,1,4,-4,7,8,/
COc1ccc(CNC(=O)c2ccc(-n3ccnc3)c3ccoc23)cc1OC,-2,-9,177*,-4,-14,7,-3
CN1C(=O)c2cc(NS(=O)(=O)c3ccccc3Cl)ccc2OC[C@@H]2O[C@@H](CC(=O)O)CC[C@H]21,/,/,-1,/,/,/,/
C[C@@H]1CN([C@@H](C)CO)C(=O)Cc2cc(NC(=O)c3ccncc3)ccc2O[C@H]1CN(C)C(=O)Nc1ccc2c(c1)OCO2,/,/,-13,/,/,/,/
CCS(=O)(=O)/N=C(\N)c1ccccc1,-1,-14,-9,-5,3,-1,/
N/C(=N\S(=O)(=O)c1ccc(Cl)s1)c1ccccc1,-1,9,117*,-14,7,0,-2
N=c1c(C(=O)NC2CCCC2)cc2c(=O)n3ccccc3nc2n1CCN1CCOCC1,0,-6,474*,7,-12,4,-9
O=C(Cc1ccccc1)N1C[C@H]2[C@@H](c3ccccc31)[C@@H](CO)N2C(=O)C1CCOCC1,/,/,116*,/,/,/,i
COc1ccc(C(=O)Nc2ccc3c(c2)OC[C@@H](C)N(Cc2cocn2)C[C@@H](C)[C@@H](OC)CN(C)C3=O)cc1,/,/,41,/,/,/,/
CC1Sc2ccc(C(=O)N(CCc3ccccc3)Cc3ccccc3)cc2NC1=O (stereo unspecified),1,-1,103*,13,-17,18,18
CNC[C@H]1Oc2ncc(-c3cccc(F)c3)cc2C(=O)N([C@H](C)CO)C[C@H]1C,/,/,5,/,/,/,/
Cc1c(Cl)cccc1N1C(=O)CC(NNC(=O)c2cccnc2)C1=O (stereo unspecified),0,-15,-35,1,6,24,/
Cc1c(Cl)cccc1N1C(=O)CC(NNC(=O)c2cccs2)C1=O (stereo unspecified),0,-3,647*,-5,3,-3,-8
COc1ccc(S(=O)(=O)NCCc2ccc(OC)c(OC)c2)cc1Cl,/,/,/,/,/,/,i

# Reprinted at random: 4 compounds from above
SMILES,MC4R ag barr,ASAP1 inh,Yeast UUG start-1,ARFGAP1 inhibitor,NRP1-CendR mod,MC4R antag cAMP,Yeast UUG start-2
COc1ccc(CNC(=O)c2ccc(-n3ccnc3)c3ccoc23)cc1OC,-2,-9,177*,-4,-14,7,-3
COc1ccc(CNC(=O)c2ccc(-n3cncn3)c3ccoc23)cc1OC,2,20,-5,2,-19,10,/
COc1ccc(C(=O)c2cnc[nH]2)cc1OC,-1,-4,-20,-10,24,11,/
Cc1c(Cl)cccc1N1C(=O)CC(NNC(=O)c2cccnc2)C1=O (stereo unspecified),0,-15,-35,1,6,24,/
